Measurements taken from ChEMBL document CHEMBL4257542, “Design, synthesis, and evaluation of bitopic arylpiperazine-phthalimides as selective dopamine D3 receptor agonists” (Medchemcomm, 2018).

Chains of the proteins cited; added tags and fusions are not shown.
UniProt P14416, whole entry: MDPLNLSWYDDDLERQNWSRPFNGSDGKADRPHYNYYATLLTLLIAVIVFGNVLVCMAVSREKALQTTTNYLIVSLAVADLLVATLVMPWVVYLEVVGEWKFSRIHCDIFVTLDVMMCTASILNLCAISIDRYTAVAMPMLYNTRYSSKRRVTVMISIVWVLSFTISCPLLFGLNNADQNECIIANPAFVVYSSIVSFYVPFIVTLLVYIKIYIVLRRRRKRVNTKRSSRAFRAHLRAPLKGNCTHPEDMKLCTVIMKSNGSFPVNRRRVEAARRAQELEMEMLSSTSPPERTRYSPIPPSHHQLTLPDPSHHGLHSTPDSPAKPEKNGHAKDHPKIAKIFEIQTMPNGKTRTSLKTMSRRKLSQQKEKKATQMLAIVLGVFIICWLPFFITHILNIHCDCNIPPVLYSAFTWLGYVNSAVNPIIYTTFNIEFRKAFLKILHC

Molecular target: D(2) dopamine receptor (Homo sapiens, UniProt P14416)
Assay: Displacement of [3H]-sulpiride from human D2 receptor expressed in HEK293 cells at 100 nM after 150 mins by liquid scintillation counting method relative to control
Format: cell-based

O=C(NCCCCN1CCN(c2cccc(Cl)c2Cl)CC1)c1cc2ccccc2[nH]1
inhibition: 29.6%
